Measurements reported in patent US9828641B2, “Systemic genotoxicity as blood marker for allergic inflammation” (The Regents of the University of California, priority 2013, dated 2017).

Tests used:
[1] = 3% DSS, 3 cycles, severe symptoms and rectal prolapse
Method: Acute colitis was defined as a 7 day treatment, and chronic colitis as any further treatment including remission periods. Control animals received sterile acidified water only. Symptoms (weight loss, stool consistency, gross bleeding) were recorded daily for calculation of disease activity index (23).
The disease activity index (DAI) is the average combined score of weight loss (0-4), stool consistency (0-4), and bleeding (0-4), used to score clinical symptoms (23).

peripheral leukocytes [2] = experiment: Alkaline comet assay with and without hOgg1 incubation; assay type: in vivo, mice; conditions: 3% DSS
Method: Frozen blood was further diluted 1:15 in PBS before further preparation.
(§1) The enzyme hOgg1-modified comet assay was used for determination of oxidative DNA damage (25). Following lysis, samples were washed in an enzyme wash buffer (40 mM HEPES, 0.1M KCl, 0.5 mM EDTA, 0.2 mg/ml BSA, pH 8.0) then incubated at 37° C. for 10 min in either control (buffer with no hOGG1) or enzyme treated (buffer with hOGG1) solutions according to the manufacturer's recommendations. (New England Biolabs, Ipswich, Mass.). Both control and enzyme treated gels were then placed in electrophoresis buffer and processed identically to the alkaline comet assay.
The enzyme hOgg1-modified comet assay was used and carried out identically as previously described (1).
as §1, with “For determination of oxidative DNA damage the” for “The”, “(5). After lysis in the alkaline comet assay,” for “for determination of oxidative DNA damage (25). Following lysis,”, “recommendations” for “recommendations.”
Control animals received vehicle only.

peripheral leukocytes [3] = conditions: 7 days of DSS, p<0.05
[4] = system: normochromatic erythrocytes; experiment: In vivo micronucleus assay; parameters: species or system mice; conditions: 3% DSS, p<0.01

In the case of dextran sulfate sodium [DSS], the “Mortality in Atm−/− mice” value [1] is reported as “Two out of ten”, the “Olive tail moment in wildtype mice (Example 2)” value (peripheral leukocytes [2]; after the first cycle, p<0.001) is reported as “increased” and the “Mean olive tail moment with hOgg1 incubation (oxidative base damage) vs hOgg1 incubated non-treated mice” value (peripheral leukocytes [2]; after treatment cycles, p<0.05) is reported as “higher”. For the same substance, the “Mean olive tail moment vs non-treated mice” value (peripheral leukocytes [2]; end of each cycle, without hOgg1, p<0.01) was “significantly higher olive tail moments”, the “8-oxoguanine in peripheral leukocytes of Atm−/− mice” value (peripheral leukocytes [3]) was “significant increases” and the “Nitrotyrosine in peripheral leukocytes of Atm−/− mice” value (peripheral leukocytes [3]) was “significant increases”. For the same substance, the “Micronucleus formation vs non-treated animals” value ([4]; after the first cycle) was “significantly induced” and the “Micronucleus formation vs non-treated animals and levels before cycle 1” value ([4]; after the second and third cycles) was “further induced”.
